The source made the active and inactive calls.
What was measured:
[1] = molecular target: T1, Nicotinate phosphoribosyltransferase (Homo sapiens) (UniProt Q6XQN6); experiment: Inhibition of NAPRT in human OVCAR5 cells assessed as potentiation of NAMPT inhibitor FK866-induced cytotoxicity by measuring reduction in cell viability at 300 uM to 1 mM incubated for 72 hrs by SRB assay; format: cell-based
T1 sequence (whole entry): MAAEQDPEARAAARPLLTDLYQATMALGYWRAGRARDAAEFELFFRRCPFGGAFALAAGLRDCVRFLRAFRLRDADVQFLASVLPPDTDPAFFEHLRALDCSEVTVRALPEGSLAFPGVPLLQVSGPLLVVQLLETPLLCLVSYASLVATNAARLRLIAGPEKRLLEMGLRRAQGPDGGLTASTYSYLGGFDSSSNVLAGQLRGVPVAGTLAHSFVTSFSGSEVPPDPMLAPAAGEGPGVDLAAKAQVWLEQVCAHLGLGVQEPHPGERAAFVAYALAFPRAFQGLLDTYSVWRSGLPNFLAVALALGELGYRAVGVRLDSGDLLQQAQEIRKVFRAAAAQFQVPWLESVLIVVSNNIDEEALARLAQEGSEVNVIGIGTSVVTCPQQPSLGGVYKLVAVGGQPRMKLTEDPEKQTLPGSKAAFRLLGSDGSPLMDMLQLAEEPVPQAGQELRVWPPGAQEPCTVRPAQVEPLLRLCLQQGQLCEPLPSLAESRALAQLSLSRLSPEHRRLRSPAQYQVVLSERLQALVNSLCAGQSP

[2] = molecular target: T1, Nicotinate phosphoribosyltransferase (Homo sapiens); experiment: (§1) Inhibition of NAPRT in human Jurkat cells assessed as potentiation of NAMPT inhibitor FK866-induced apoptosis by measuring reduction in cell viability at 3.5 mM prer-incubated with IC50 level of FK866 for 48 hrs followed by compound addition and further incubated for 48 hrs by Annexin-V/7-AAD staining based flow cytometry
[3] = molecular target: T1, Nicotinate phosphoribosyltransferase (Homo sapiens); experiment: as §1, with “ML2” for “Jurkat”
[4] = molecular target: T1, Nicotinate phosphoribosyltransferase (Homo sapiens); experiment: as §1, with “NOMO” for “Jurkat”
[5] = molecular target: T1, Nicotinate phosphoribosyltransferase (Homo sapiens); experiment: as §1, with “NB4” for “Jurkat”
[6] = molecular target: T1, Nicotinate phosphoribosyltransferase (Homo sapiens); experiment: as §1, with “NAMALWA” for “Jurkat”
[7] = molecular target: T1, Nicotinate phosphoribosyltransferase (Homo sapiens); experiment: as §1, with “Daudi” for “Jurkat”
[8] = molecular target: T1, Nicotinate phosphoribosyltransferase (Homo sapiens); experiment: as §1, with “Raji” for “Jurkat”
[9] = molecular target: T1, Nicotinate phosphoribosyltransferase (Homo sapiens); experiment: as §1, with “ARH77” for “Jurkat”
[10] = molecular target: T1, Nicotinate phosphoribosyltransferase (Homo sapiens); experiment: as §1, with “RPMI8226” for “Jurkat”
[11] = molecular target: T1, Nicotinate phosphoribosyltransferase (Homo sapiens); experiment: as §1, with “U266” for “Jurkat”

Measured: inhibition

CC(=O)Oc1ccccc1C(=O)O [ASPIRIN]
active: [1] | [2] | [3] | [4] | [5] | [6] | [7] | [8] | [9] | [10] | [11]

Reference: ChEMBL document CHEMBL4417637, “Sensitization of cancer cells to nampt inhibitors by nicotinic acid phosphoribosyltransferase neutralization” (2017)
